The source made the active and inactive calls. The rule behind the calls is not given here.
molecular target: T1, DNA topoisomerase 1 (Homo sapiens) (UniProt P11387); assay: Inhibition of human Top1B expressed in Top1B deficient Saccharomyces cerevisiae EKY3 assessed as decrease in relaxation of supercoiled pSK DNA preincubated for 15 mins followed by DNA addition and measured after 2 to 16 mins by agarose gel electrophoresis
T1 sequence (whole entry): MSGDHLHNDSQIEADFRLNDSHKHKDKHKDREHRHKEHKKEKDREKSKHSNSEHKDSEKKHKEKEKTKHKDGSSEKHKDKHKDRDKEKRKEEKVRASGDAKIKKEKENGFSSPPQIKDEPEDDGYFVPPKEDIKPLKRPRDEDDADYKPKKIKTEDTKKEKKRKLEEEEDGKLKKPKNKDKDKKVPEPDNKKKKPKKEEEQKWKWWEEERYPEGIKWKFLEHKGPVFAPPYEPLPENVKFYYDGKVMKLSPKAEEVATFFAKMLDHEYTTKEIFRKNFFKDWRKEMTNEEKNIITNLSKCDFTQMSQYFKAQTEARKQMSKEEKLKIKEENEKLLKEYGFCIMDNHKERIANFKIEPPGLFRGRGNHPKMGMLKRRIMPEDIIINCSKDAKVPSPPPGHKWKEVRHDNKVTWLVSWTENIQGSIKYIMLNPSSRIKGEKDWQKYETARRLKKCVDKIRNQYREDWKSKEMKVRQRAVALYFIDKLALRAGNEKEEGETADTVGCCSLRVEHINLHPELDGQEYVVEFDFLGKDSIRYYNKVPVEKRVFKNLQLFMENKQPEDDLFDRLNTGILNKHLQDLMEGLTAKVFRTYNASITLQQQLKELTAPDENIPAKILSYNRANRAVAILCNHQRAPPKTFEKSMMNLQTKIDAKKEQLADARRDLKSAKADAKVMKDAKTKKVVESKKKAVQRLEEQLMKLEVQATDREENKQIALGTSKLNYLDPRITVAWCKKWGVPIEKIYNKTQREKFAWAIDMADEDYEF

inhibition | Structure (SMILES)
inactive | Cc1ccc([C@H]2C[C@@H](c3ccc(F)cc3)Nc3c2cccc3P(=O)(c2ccccc2)c2ccccc2)cc1 (relative stereo)
inactive | COc1ccccc1[C@@H]1C[C@H](c2ccccc2)c2cccc(P(=O)(c3ccccc3)c3ccccc3)c2N1 (relative stereo)

More lines, now with the values behind:

Structure (SMILES) | inhibition
O=P(c1ccccc1)(c1ccccc1)c1cccc2c1N[C@H](c1ccc(F)c(F)c1)C[C@@H]2c1ccc(F)cc1 (relative stereo) | inactive
O=[N+]([O-])c1ccc([C@@H]2C[C@H](c3ccccc3)c3cccc(P(=S)(c4ccccc4)c4ccccc4)c3N2)cc1 (relative stereo) | inactive
O=P(c1ccccc1)(c1ccccc1)c1cccc2c(-c3ccccc3)cc(-c3ccc4ccccc4c3)nc12 | inactive
Fc1ccc(-c2cc(-c3ccc(F)cc3)c3cccc(P(=S)(c4ccccc4)c4ccccc4)c3n2)cc1 | inactive
O=P(c1ccccc1)(c1ccccc1)c1cccc2c(-c3ccc(F)cc3)cc(-c3ccccc3)nc12 | inactive

molecular target: T1, DNA topoisomerase 1 (Homo sapiens); assay: Inhibition of human Top1B expressed in Top1B deficient Saccharomyces cerevisiae EKY3 assessed as decrease in relaxation of supercoiled pSK DNA preincubated for 15 mins followed by DNA addition and measured after 2 to 4 mins by agarose gel electrophoresis

inhibition | Structure (SMILES)
Active | COc1ccc([C@@H]2C[C@H](c3ccccc3)c3cccc(P(=S)(c4ccccc4)c4ccccc4)c3N2)cc1 (relative stereo)

molecular target: T1, DNA topoisomerase 1 (Homo sapiens); assay: Inhibition of human Top1B expressed in Top1B deficient Saccharomyces cerevisiae EKY3 assessed as decrease in relaxation of supercoiled pSK DNA preincubated for 15 mins followed by DNA addition and measured after 8 to 16 mins by agarose gel electrophoresis

inhibition | Structure (SMILES)
inactive | COc1ccc([C@@H]2C[C@H](c3ccccc3)c3cccc(P(=S)(c4ccccc4)c4ccccc4)c3N2)cc1 (relative stereo)

— ChEMBL document CHEMBL4382214, “Antileishmanial activity of new hybrid tetrahydroquinoline and quinoline derivatives with phosphorus substituents” (Eur J Med Chem, 2019)
